Experimental data taken from publication PMC12102759 (Protein Science : A Publication of the Protein Society, 2025).

Each sequence was assayed on YES SH3.
Format: binding, human
“TSSIQSRPLPSPPKFT P12R (TSSIQSRPLPSRPKFT)” was tested, and the “PSSM value of the single amino acid variant (DMS by phage display)” value (shortened to “PSSM value”) was 0.001863. In the case of “TSSIQSRPLPSPPKFT P12S (TSSIQSRPLPSSPKFT)”, the “PSSM value” value is reported as 0.02371. “TSSIQSRPLPSPPKFT P12T (TSSIQSRPLPSTPKFT)” was tested, and the “PSSM value” value was 0.09906. “TSSIQSRPLPSPPKFT P12V (TSSIQSRPLPSVPKFT)” was tested, and the “PSSM value” value was 0.005074. With “TSSIQSRPLPSPPKFT P12W (TSSIQSRPLPSWPKFT)” the “PSSM value” value was 0.0167. “TSSIQSRPLPSPPKFT P12Y (TSSIQSRPLPSYPKFT)” was tested, and the “PSSM value” value was 0.1364. In the case of “TSSIQSRPLPSPPKFT P13A (TSSIQSRPLPSPAKFT)”, the “PSSM value” value is reported as 0.005715. In the case of “TSSIQSRPLPSPPKFT P13D (TSSIQSRPLPSPDKFT)”, the “PSSM value” value is reported as 0.0342. With “TSSIQSRPLPSPPKFT P13E (TSSIQSRPLPSPEKFT)” the “PSSM value” value was 0.00302. In the case of “TSSIQSRPLPSPPKFT P13F (TSSIQSRPLPSPFKFT)”, the “PSSM value” value is reported as 0.02856. In the case of “TSSIQSRPLPSPPKFT P13G (TSSIQSRPLPSPGKFT)”, the “PSSM value” value is reported as 0.06123. For “TSSIQSRPLPSPPKFT P13H (TSSIQSRPLPSPHKFT)”, the “PSSM value” value was 0.001935. In the case of “TSSIQSRPLPSPPKFT P13I (TSSIQSRPLPSPIKFT)”, the “PSSM value” value is reported as 0.177. “TSSIQSRPLPSPPKFT P13K (TSSIQSRPLPSPKKFT)” was tested, and the “PSSM value” value was 0.0006935. In the case of “TSSIQSRPLPSPPKFT P13L (TSSIQSRPLPSPLKFT)”, the “PSSM value” value is reported as 0.3368. For “TSSIQSRPLPSPPKFT P13M (TSSIQSRPLPSPMKFT)”, the “PSSM value” value was 0.02494. In the case of “TSSIQSRPLPSPPKFT P13N (TSSIQSRPLPSPNKFT)”, the “PSSM value” value is reported as 0.01232. In the case of TSSIQSRPLPSPPKFT P13P, the “PSSM value” value is reported as 0.03122. “TSSIQSRPLPSPPKFT P13Q (TSSIQSRPLPSPQKFT)” was tested, and the “PSSM value” value was 0.07138. In the case of “TSSIQSRPLPSPPKFT P13R (TSSIQSRPLPSPRKFT)”, the “PSSM value” value is reported as 0.002965. For “TSSIQSRPLPSPPKFT P13S (TSSIQSRPLPSPSKFT)”, the “PSSM value” value was 0.02019. For “TSSIQSRPLPSPPKFT P13T (TSSIQSRPLPSPTKFT)”, the “PSSM value” value was 0.01047. With “TSSIQSRPLPSPPKFT P13V (TSSIQSRPLPSPVKFT)” the “PSSM value” value was 0.009368. In the case of “TSSIQSRPLPSPPKFT P13W (TSSIQSRPLPSPWKFT)”, the “PSSM value” value is reported as 0.02294. With “TSSIQSRPLPSPPKFT P13Y (TSSIQSRPLPSPYKFT)” the “PSSM value” value was 0.145. In the case of TSSIQSRPLPSPPKFT Q5A (TSSIASRPLPSPPKFT), the “PSSM value” value is reported as 0.07011. With TSSIQSRPLPSPPKFT Q5D (TSSIDSRPLPSPPKFT) the “PSSM value” value was 0.03906. With TSSIQSRPLPSPPKFT Q5E (TSSIESRPLPSPPKFT) the “PSSM value” value was 0.002526. In the case of TSSIQSRPLPSPPKFT Q5F (TSSIFSRPLPSPPKFT), the “PSSM value” value is reported as 0.007998. With TSSIQSRPLPSPPKFT Q5G (TSSIGSRPLPSPPKFT) the “PSSM value” value was 0.02833. With TSSIQSRPLPSPPKFT Q5H (TSSIHSRPLPSPPKFT) the “PSSM value” value was 0.138. For TSSIQSRPLPSPPKFT Q5I (TSSIISRPLPSPPKFT), the “PSSM value” value was 0.07041. TSSIQSRPLPSPPKFT Q5K (TSSIKSRPLPSPPKFT) was tested, and the “PSSM value” value was 0. TSSIQSRPLPSPPKFT Q5L (TSSILSRPLPSPPKFT) was tested, and the “PSSM value” value was 0.02704. In the case of TSSIQSRPLPSPPKFT Q5M (TSSIMSRPLPSPPKFT), the “PSSM value” value is reported as 0.07195.
